Laboratory results taken from patent US20070021439A1, “Methods of reducing risk of infection from pathogens with soluble amide and ester pyrazinoylguanidine sodium channel blockers” (Parion Sciences, Inc., priority 2005, published 2007).
Structures can show the parent of a compound that is named as a salt.

Assay: Solubility of compounds in sodium chloride solution
Type: physicochemical
Conditions: ambient temperature, tested form: bis(methanesulfonate)
Experimental: Compound solubility was measured in water, 0.12 or 0.9% sodium chloride solution at ambient temperature for up to 10 days. Using a UV/Visable Spectrophotometer and applying Beer's Law with the calculated extinction coefficient of amiloride (18.6 mM, absorbance values at 362 nm taken from D. Mazzo 1986) the free base concentration in solution was calculated at specified time points. All samples were stored for the duration of the experiment in a single/closure system consisting of glass vials with a stopper-top closure. The vials were maintained at ambient temperature, in the dark, and in the upright position. Compound stability was measured using reverse phase high performance liquid chromatography on the final filtered pulled sample (day 10).
Table 2 gives the solubility in saline of selected amide bis methane sulfonic acid salts and compares them to the mono addition methane sulfonic acid salt of PSA 9714.

SMILES: CN(C)CCNC(=O)COc1ccc(CCCCNC(=N)NC(=O)c2nc(Cl)c(N)nc2N)cc1
- S1 = Solubility in 0.12% NaCl Solution: >5 mg/mL

SMILES: CN(C)CCCCNC(=O)COc1ccc(CCCCNC(=N)NC(=O)c2nc(Cl)c(N)nc2N)cc1
- S1 = Solubility in 0.12% NaCl Solution: >5 mg/mL
- S2 = Solubility in 0.9% NaCl Solution (normal Saline): >5 mg/mL

SMILES: N=C(NCCCCc1ccc(OCC(=O)NCCN(CCO)CCO)cc1)NC(=O)c1nc(Cl)c(N)nc1N
- S1 = Solubility in 0.12% NaCl Solution: >5 mg/mL
- S2 = Solubility in 0.9% NaCl Solution (normal Saline): >5 mg/mL

SMILES: CN(C)CCCNC(=O)COc1ccc(CCCCNC(=N)NC(=O)c2nc(Cl)c(N)nc2N)cc1 (as salt: methanesulfonate)
- S1 = Solubility in 0.12% NaCl Solution: >5 mg/mL
